Legend:
[1] = molecular target: PTPRS (Homo sapiens, UniProt Q13332); experiment: pNPP hydrolysis by recombinant PTPRS phosphatase; settings: read-out: PTPRS IC50; untitled table after Table 4; mean, SEM in wrapped line
[2] = molecular target: PTPRJ (Homo sapiens, UniProt Q12913); experiment: pNPP hydrolysis by PTPRJ phosphatase; settings: read-out: PTPRJ IC50; untitled table after Table 4; mean, SEM in wrapped line
[3] = molecular target: PTPRF (Homo sapiens, UniProt P10586); experiment: pNPP hydrolysis by recombinant PTPRF phosphatase; settings: read-out: PTPRF IC50; untitled table after Table 4; mean, SEM in wrapped line
[4] = molecular target: recombinant PTPRD (Homo sapiens, UniProt P23468); experiment: pNPP hydrolysis by recombinant PTPRD phosphatase; settings: read-out: PTPRD IC50; untitled table after Table 4; mean, SEM in wrapped line; compounds with PTPRD IC50 <5 μM

Protein sequences, listed by entry. Tags and fused reporters are not part of them. Residues count along the entry.
UniProt Q13332, 30-1948 limits assumed: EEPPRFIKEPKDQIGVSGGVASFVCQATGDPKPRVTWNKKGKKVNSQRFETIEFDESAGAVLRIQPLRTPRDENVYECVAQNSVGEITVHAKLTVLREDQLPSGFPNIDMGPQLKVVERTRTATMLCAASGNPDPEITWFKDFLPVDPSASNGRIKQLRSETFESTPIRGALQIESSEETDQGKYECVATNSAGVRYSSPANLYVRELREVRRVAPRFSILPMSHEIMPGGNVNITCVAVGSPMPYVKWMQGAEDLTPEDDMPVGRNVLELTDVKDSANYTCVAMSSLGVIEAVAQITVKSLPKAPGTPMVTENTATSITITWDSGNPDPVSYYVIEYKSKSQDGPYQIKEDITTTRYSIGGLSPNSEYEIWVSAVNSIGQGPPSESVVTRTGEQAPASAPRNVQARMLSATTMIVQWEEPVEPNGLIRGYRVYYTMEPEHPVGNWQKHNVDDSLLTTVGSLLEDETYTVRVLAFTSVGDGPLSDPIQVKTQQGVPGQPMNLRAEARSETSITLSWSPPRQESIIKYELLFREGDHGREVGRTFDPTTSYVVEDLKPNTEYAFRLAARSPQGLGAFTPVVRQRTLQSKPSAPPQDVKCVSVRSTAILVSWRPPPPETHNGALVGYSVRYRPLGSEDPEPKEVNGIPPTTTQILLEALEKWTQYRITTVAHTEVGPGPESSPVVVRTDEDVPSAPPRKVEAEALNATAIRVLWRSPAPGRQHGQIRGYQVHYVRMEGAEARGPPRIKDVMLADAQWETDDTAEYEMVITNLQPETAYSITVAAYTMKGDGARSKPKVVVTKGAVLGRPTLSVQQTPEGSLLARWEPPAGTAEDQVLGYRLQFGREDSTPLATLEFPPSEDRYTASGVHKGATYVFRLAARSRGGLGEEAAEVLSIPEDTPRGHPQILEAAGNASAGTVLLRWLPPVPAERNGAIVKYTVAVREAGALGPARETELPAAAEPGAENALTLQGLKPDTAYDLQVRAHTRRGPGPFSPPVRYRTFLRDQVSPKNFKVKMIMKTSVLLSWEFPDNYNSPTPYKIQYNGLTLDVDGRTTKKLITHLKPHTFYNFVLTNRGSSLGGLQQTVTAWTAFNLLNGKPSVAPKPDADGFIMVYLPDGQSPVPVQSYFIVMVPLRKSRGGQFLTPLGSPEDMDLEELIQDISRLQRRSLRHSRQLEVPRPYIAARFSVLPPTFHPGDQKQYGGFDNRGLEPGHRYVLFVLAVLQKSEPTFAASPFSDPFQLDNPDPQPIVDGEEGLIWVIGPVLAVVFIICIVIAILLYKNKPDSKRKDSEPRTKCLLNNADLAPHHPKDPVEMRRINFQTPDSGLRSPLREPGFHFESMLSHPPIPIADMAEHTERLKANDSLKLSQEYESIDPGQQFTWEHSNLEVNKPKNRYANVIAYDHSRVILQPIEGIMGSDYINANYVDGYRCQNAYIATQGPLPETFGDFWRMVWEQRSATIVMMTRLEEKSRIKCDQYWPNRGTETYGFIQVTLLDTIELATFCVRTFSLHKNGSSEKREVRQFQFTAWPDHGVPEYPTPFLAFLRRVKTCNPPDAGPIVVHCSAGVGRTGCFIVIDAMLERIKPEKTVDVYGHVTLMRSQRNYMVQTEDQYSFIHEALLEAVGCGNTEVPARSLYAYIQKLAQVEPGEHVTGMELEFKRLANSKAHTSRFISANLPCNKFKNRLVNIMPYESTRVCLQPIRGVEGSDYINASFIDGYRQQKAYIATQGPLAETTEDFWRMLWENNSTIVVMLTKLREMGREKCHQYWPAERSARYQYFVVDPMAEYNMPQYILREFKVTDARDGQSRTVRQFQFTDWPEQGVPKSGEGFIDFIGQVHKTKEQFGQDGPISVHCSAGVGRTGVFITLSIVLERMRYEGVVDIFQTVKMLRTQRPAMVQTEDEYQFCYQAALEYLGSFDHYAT
UniProt P10586, 30-1907 limits assumed: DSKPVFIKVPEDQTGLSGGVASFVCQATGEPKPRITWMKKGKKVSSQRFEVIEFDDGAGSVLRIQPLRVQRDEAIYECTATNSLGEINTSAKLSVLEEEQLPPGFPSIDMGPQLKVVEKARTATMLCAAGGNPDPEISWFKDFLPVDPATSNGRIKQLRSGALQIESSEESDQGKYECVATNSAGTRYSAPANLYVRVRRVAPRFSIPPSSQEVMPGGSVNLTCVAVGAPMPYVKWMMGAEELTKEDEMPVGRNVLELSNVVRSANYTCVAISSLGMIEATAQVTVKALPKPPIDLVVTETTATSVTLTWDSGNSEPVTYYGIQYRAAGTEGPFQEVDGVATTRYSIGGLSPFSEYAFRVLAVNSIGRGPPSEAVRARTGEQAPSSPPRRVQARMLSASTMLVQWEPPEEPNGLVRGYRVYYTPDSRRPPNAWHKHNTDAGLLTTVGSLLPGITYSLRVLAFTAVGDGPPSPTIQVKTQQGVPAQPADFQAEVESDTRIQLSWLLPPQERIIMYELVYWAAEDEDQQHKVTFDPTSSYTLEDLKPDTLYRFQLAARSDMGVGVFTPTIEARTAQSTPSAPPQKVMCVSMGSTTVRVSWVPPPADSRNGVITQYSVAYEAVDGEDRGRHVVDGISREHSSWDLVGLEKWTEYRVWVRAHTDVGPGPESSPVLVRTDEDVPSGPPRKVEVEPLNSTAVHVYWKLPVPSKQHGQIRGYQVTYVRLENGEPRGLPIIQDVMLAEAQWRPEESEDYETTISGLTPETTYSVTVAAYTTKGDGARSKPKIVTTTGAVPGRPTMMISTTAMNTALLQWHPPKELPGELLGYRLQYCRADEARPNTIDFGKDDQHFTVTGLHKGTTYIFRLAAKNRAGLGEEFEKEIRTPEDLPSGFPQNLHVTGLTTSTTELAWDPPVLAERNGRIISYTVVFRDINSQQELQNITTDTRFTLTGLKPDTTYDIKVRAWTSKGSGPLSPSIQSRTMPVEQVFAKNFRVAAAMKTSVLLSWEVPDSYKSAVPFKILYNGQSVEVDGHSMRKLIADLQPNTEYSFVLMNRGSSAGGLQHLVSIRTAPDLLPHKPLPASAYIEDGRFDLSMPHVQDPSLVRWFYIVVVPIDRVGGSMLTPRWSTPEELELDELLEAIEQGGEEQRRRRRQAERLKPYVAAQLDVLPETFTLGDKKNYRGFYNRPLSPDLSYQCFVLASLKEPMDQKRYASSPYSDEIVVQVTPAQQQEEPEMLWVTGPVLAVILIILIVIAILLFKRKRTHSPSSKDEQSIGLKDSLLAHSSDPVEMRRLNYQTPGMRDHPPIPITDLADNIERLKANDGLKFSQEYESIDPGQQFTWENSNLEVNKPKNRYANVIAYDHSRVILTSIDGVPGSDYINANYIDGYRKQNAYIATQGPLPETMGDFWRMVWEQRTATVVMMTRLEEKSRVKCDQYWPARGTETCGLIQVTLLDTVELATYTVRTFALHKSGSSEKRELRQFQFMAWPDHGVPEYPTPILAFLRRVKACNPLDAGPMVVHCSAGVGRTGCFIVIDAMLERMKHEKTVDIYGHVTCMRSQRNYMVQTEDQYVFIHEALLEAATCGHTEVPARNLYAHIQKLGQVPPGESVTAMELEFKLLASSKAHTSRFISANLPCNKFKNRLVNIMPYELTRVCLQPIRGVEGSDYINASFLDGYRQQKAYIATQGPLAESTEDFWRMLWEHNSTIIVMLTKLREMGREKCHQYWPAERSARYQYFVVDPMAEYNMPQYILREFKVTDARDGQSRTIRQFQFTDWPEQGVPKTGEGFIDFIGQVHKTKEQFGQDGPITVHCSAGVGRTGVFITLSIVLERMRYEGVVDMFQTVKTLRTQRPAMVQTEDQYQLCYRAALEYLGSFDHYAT
UniProt P23468, 21-1912 limits assumed: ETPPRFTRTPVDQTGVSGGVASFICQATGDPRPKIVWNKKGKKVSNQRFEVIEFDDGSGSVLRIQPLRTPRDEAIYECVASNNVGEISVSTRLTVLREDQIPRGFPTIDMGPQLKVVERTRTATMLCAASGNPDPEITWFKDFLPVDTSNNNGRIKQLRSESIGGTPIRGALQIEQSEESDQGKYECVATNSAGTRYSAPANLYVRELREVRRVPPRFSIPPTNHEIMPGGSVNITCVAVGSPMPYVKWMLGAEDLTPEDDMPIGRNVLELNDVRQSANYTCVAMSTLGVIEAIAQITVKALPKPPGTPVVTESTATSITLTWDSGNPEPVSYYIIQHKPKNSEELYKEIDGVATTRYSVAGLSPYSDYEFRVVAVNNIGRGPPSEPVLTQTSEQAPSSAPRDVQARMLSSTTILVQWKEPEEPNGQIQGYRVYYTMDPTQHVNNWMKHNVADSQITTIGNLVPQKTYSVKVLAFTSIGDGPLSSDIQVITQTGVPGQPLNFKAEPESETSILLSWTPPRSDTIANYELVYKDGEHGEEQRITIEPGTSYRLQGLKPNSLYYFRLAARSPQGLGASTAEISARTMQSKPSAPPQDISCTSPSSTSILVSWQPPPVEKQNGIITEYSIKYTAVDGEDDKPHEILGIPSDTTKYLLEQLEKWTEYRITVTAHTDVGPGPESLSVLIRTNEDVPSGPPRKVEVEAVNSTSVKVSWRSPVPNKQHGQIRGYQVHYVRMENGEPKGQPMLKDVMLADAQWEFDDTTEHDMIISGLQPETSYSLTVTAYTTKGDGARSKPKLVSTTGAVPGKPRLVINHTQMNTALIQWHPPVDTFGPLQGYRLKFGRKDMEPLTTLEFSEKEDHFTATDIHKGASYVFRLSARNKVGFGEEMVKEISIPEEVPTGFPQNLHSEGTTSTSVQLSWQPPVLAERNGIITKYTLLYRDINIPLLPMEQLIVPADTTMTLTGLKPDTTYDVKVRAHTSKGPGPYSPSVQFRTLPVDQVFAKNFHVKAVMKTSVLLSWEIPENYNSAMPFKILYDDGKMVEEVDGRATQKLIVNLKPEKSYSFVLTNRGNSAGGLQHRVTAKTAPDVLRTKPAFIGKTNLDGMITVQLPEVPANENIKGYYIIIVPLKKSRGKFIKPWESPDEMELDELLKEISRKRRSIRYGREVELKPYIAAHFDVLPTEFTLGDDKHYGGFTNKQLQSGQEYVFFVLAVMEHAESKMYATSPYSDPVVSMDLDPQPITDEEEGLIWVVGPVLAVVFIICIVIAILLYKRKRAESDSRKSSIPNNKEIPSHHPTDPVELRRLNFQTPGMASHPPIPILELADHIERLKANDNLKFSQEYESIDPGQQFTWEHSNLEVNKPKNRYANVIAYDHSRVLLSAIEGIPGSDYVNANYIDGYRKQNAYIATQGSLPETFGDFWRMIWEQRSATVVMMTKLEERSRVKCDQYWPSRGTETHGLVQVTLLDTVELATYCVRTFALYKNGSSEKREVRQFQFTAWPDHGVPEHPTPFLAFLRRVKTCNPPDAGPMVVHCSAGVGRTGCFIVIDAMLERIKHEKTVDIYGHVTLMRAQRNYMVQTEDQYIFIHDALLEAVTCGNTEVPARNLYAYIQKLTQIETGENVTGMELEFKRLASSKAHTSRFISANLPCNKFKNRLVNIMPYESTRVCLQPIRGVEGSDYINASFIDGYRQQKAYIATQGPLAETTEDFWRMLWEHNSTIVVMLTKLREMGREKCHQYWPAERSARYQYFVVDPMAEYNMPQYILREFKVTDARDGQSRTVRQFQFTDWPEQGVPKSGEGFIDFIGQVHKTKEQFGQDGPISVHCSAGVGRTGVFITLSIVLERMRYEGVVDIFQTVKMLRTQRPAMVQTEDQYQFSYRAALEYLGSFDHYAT

COc1c(OCC23CC(C2)C3)cc2c(c1C=O)CC(O)OC2=O (stereo not shown)
IC50 [1]: 2.09 µM
IC50 [2]: 21 µM
IC50 [3]: 3.55 µM
IC50 [4]: 3.36 µM

Source: patent publication US11987564B2, “PTPRD inhibitors and uses thereof” (United States Government as represented by the Department …, priority 2021, dated 2024)
